Data set [1] concerns SU5416-hypoxic pulmonary arterial hypertension rats. The settings on record: rat, in vivo.
Data set [2] concerns hypoxia-induced pulmonary hypertension mice. Briefly: Hypoxia-induced (Group 3) pulmonary hypertension mouse model. The settings on record: hypoxic mice; I-BET762 30 mg/kg daily oral.
In data set [3] the test system is monocrotaline-exposed pulmonary arterial hypertension rats. Briefly: Monocrotaline (MCT) pulmonary arterial hypertension rat model, dosing Days 12-26.
Data set [4] has as its system SU5416-hypoxic pulmonary arterial hypertension rats. Kind of data set: SU5416-hypoxia pulmonary arterial hypertension rat model, disease-reversal dosing.
Where [5] appears, read: I-BET762 30 mg/kg daily i.p. or BRD2889 5 mg/kg i.p. every 5 days, Days 12-26.

From patent publication US20250288572A1, “COMPOSITIONS AND METHODS FOR TREATING PULMONARY VASCULAR DISEASE” (UNIVERSITY OF PITTSBURGH-OF THE COMMONWEALTH SYSTEM OF …, priority 2022, published 2025) come the findings set out here.

“Also recorded” adds a separate entry of the source. Where two headings read alike, the source gives them in different places.

Regarding `CCNC(=O)C[C@@H]1N=C(c2ccc(Cl)cc2)c2cc(OC)ccc2-n2c(C)nnc21` [I-BET762], the “left ventricular function (LVPW thickness, LVEF, LVFS; echocardiography)” value in data set [1] was “no alteration”. The Fulton index entry in data set [2] is reported as “without significant effect; also recorded: With the exception of Fulton Index”. Further, the “LGALS8 in pulmonary arterioles (immunofluorescence)” value in data set [3] (I-BET762 30 mg/kg daily i.p. Days 12-26) is reported as “decreased pulmonary vascular LGALS5”. In addition, in data set [3] (setting [5]), the “Fulton index (RV/LV+S)” value is “reduced”; the “arteriolar muscularization (α-SMA)” value is on record as “reduced”; the “cleaved caspase-3 (CC-3), endothelial apoptosis” value is “reduced downstream apoptosis; also recorded: decreased”; the “right ventricular systolic pressure (RVSP)” value is “reduced”. In data set [4] (I-BET762 30 mg/kg daily i.p. or BRD2889 5 mg/kg i.p. every 5 days, final 2 weeks), the “Fulton index (RV/LV+S)” value is reported as “reduced”. In addition, in data set [4] (vs vehicle control), the “aortic blood pressure (mean arterial pressure, MAP)” value was “no alteration”; the heart rate result is “no alteration”; the “left ventricular function (LVPW thickness, LVEF, LVFS; echocardiography)” value is “did not exhibit altered left ventricular function”.
